Tests used:
HuK/F cultures [1] = experiment: MTT assay of cell viability in human skin cell co-cultures on nylon mesh; type: cell-based; conditions: concentration w/v giving 50% decrease in MTT dye uptake vs untreated control, 48 hours
HuK/F cultures [2] = experiment: N-acetylglucosaminidase release into culture medium (cytotoxicity); type: cell-based, human; conditions: 48 hours
Method: (§1) For each HuK/F experiment, on a 24 well plate, 1 test material is evaluated at 4 concentrations (in quadruplicate wells per each concentration). In addition, 4 wells serve as medium control, and 4 wells as sodium dodecyl sulfate positive control. For each material evaluated, a dose-range finding study is performed at 0.001, 0.01, 0.1 and 1.0% (w/v) concentrations to determine the concentration eliciting minimum and maximum cytotoxicity in the MTT assay of cell viability. Based on the dose-range finding study, a range of test material concentrations is selected to determine the concentration eliciting minimum and maximum cytotoxicity in the MTT assay of cell viability. Based on the dose-range finding study, concentrations are selected at the maximal cytoxicity level and minimum level and at two 1/3 log intervals between these concentrations (e.g., if the maximum cytoxicity was at 1% with no cytotoxicity or cell death at 0.1% the concentrations evaluated subsequently would be 0.1, 0.3, 0.6 and 1%).
(§2) On treatment day, growth medium is aseptically aspirated, and the cell meshes are treated with two ml of test medium per well. Medium alone served as a no treatment control with 0.01% sodium dodecyl sulfate acting as a positive control (n=4 wells/group). All test plates are incubated at 37 °C and 5% carbon dioxide for 4 to 72 hours. Observations are made (e.g. changes in medium color) during the treatment period.
(§3) • 1. Place one untreated, precut mesh (no cells) into one or more wells to determine the background non-specific binding (NSB) of MTT to mesh and to act as absolute blank. In remaining wells place 1 mesh per well of the fibroblast/keratinocyte co-cultures. Add 2 ml of the assay medium which is supplied with the test kit. (Marrow-Tech supplies a medium). • 2. Remove medium from each well and add 2 ml/well of test agent diluted in assay medium. Refeed untreated control mesh and mesh without cells with assay medium. • 3. Incubate 48 hours at 37 °C in 5%. carbon dioxide atmosphere. • 4. Prepare a solution of 0.5 mg/ml MTT (Sigma Chemical Co. Catalog #M-2128) in assay medium. Centrifuge MTT/medium for 5 minutes at 3000 RPM to pellet undissolved crystals, then prewarm MTT in a 37 °C waterbath. • 5. Remove spent medium. Use 1 ml aliquot to analyze for lactate dehydrogenase and N-acetylglucosaminidase release and glucose; 1 ml can be saved under nitrogen at -70 °C for PGE2 analysis at a later time. • 6. Add 1 ml/well MTT/medium solution. Add medium without MTT to absolute blank well. Incubate cultures at 37 °C, 5% carbon dioxide for 3 hours. • 7. Remove MTT/medium and wash each mesh 2 times with 1 ml Dulbecco's phosphate buffered saline with calcium and magnesium (PBS). About 2-5 minutes each wash. • 8. Remove second PBS wash and add 2 ml isopropanol/well at room temperature 2 hours. This will extract the formazan from mitochondria of cells into the supernatant. (Note: the amount of MTT taken up by a cell culture and subsequently released by solvent extraction is proportional to the number of viable cells within the culture). Remove meshes from test well and stir on shaking vortex mixer. • 9. Transfer 200 microliter aliquots of the blue spent solvent from each well to a 96 well microtiter plate and read absorbance at 540 nm blanking to absolute blank (well not exposed to the MTT). The wells containing the NSB meshes should be subtracted from the test well absorbances before performing calculations below.

HuK/F cultures [3] = experiment: Lactate dehydrogenase release into culture medium (cytotoxicity); type: cell-based, human; conditions: 48 hours
Method: as §1, §2, §3

Substance	MTT-50 Endpoint (Concentration w/v) (HuK/F cultures [1]) [%]	N-Acetylglucosaminidase Release (HuK/F cultures [2]; 0.001 % w/v) [U/L]	N-Acetylglucosaminidase Release (HuK/F cultures [2]; 0.003 % w/v) [U/L]	N-Acetylglucosaminidase Release (HuK/F cultures [2]; 0.006 % w/v) [U/L]	N-Acetylglucosaminidase Release (HuK/F cultures [2]; 0.01 % w/v)	Lactate Dehydrogenase Release (HuK/F cultures [3]; 0.001 % w/v) [U/L]	Lactate Dehydrogenase Release (HuK/F cultures [3]; 0.003 % w/v) [U/L]	Lactate Dehydrogenase Release (HuK/F cultures [3]; 0.006 % w/v)	Lactate Dehydrogenase Release (HuK/F cultures [3]; 0.01 % w/v)
C11.8 Alkane Benzene Sulfonate [C11.8 LAS]	0.0073	11.8	12.58	13.75	17.18+ U/L	54.5	62.0	371.3+ U/L	1459.5+ U/L
C12.3 Alkane Benzene Sulfonate [C12.3 LAS*H]	0.0070	13.95	14.80	16.85	21.43+ U/L	29.3	38.0	389.3+ U/L	1584.0+ U/L

From patent EP0497399A1, “Process for evaluating skin irritancy” (THE PROCTER & GAMBLE COMPANY, priority 1991, dated 1992)
